Publication PMC4960888, “Gd-nanoparticles functionalization with specific peptides for ß-amyloid plaques targeting” (Journal of Nanobiotechnology, 2016)

Sequences of proteins named here, by UniProt entry; tags and fusion partners are left off. Residues count along the entry.
UniProt P05067, 672-713 limits assumed: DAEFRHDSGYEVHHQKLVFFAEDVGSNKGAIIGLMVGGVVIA

Assays:
[1] = system: V30M-TTR fibrils; experiment: Partition (spectrofluorometric) binding to V30M-TTR fibrils; parameters: species or system human; details: read-out: Kd, PIB partition binding; 20 µM fibrils, PIB 0.01–4 µM, 60 min room temperature, centrifugation; fluorescence λexc 350/λem 420 nm; Michaelis model 1:1
[2] = system: Aβ amyloid plaques (APPswe/PS1A246E/TTR(−/−) transgenic mouse brain sections); experiment: Immunohistochemistry on AD mouse brain sections with amyloid plaques; details: 10 months old APPswe/PS1A246E/TTR(−/−) hippocampus; nanoparticles at 3 nM Cy5.5 (2 mM Gd^3+) with 3 mM ungrafted nanoparticles, or PIB 1 µM; 1h30 RT; fluorescence
[3] = target: Aβ(1–42) fibrils (Homo sapiens, UniProt P05067); experiment: Partition (spectrofluorometric) binding to Aβ(1–42) fibrils; details: read-out: Kd, PIB partition binding; 20 µM fibrils, PIB 0.01–4 µM, 60 min room temperature, centrifugation; fluorescence λexc 350/λem 420 nm; Michaelis model 1:1

What does the source list for `COc1ccc2nc(-c3ccc(N)cc3)sc2c1`?
Kd [1]: 10 µM; binding/staining of amyloid plaques in AD mouse brain sections [2]: robust fluorescent dots with diffusing labeling localized in AD mouse hippocampus; Kd [3]: 6 µM
